Legend:
Assay type in all cases: cell-based
[1] = system: HER2 positive breast cancer cell line, BT474; experiment: In vitro cytotoxicity, IncuCyte Sytox Green; conditions: 50 nM, 3.3 nM, 0.2 nM; imaged for ten days
Description: Cells were plated in 96 well plates at 10% confluency (8000 for BT474). […] Plates were imaged every four hours for ten days in the IncuCyte S3. Images for % phase (confluence) and green (Sytox Green) were collected and analysed using the IncuCyte software 2022A. Data are presented as green area normalised to phase area (μm^2) over time whilst cells are in log phase proliferation.
Trastuzumab was conjugated to NMT inhibitor 1 (ADC Example 8) and tested for its cytotoxic activity against a HER2 positive breast cancer cell line, BT474 in an in vitro assay. Cells were plated in 96 well plates at 10% confluency (8000 for BT474). The following day cells were treated with ADC Example 8 at 50 nM, 3.13 nM, and 0.2 nM and controls in 250 nM Sytox Green containing medium. Plates were imaged every four hours for ten days in the IncuCyte S3. Images for % phase (confluence) and green (Sytox Green) were collected and analysed using the IncuCyte software 2022A. Data are presented as green area normalised to phase area (μm^2) over time whilst cells are in log phase proliferation.

[2] = system: gastric cancer organoid GA0060B; experiment: Gastric cancer organoid CTG viability assay; design: AUC (area under curve): unit not given beside the values; conditions: 5 or 6 days; for IC50: absolute IC50
Description: (§1) • Day−1: Patient derived gastric cancer organoids (PDXOs) are sheared to uniform sizes and the required number of organoids are combined 1:1 with 50% Matrigel to produce the right size of the organoids to perform the screen. • Day 0: Organoid seeding • 1. Collect organoids from each well by adding 20 μl 100× Dispase solution to each well from a 6-well plate, which contains 2 ml of organoid medium. • 2. Put the plates back in the incubator, 37° C. for 30 min. • 3. Collect organoids from all wells and pipet through a pre-wet 100 μm filter into a 50 ml plastic tube. • 4. Once all wells have been filtered over 100 μm filters, filter the flow though over a pre-wet 20 μm filter. • 5. Invert the 20 μm filter and recover the organoids in a new 50 ml tube. • 6. Collect and resuspend the organoids in the corresponding culture media. Count the organoids to get the concentration. • 7. Adjust cell concentration with culture medium to the proper concentration. • 8. Add Matrigel to a final concentration of 5% v/v and keep the organoids suspension on ice. • 9. Add 40 μL cell suspensions to 384-well plate by Multidrop dispenser with corresponding culture medium at the below seeding density:
(§2) • 10. Place screening plates back into the incubator before adding compounds and day 0 reading. Two duplicate plates were set up. One is for day 0 reading (TO) and the other for reading at the end point. • Day 0: Compounds treatment and Day 0 baseline CTG (cell titre glo) reading • 11. Add test articles according to the drug dilution scheme and plate map by Tecan D300e • 12. Place screening plates back into the incubator. • 13. For day 0 reading plate, add 40 μL of CTG 3D per well and read luminescent signal on Envision plate reader. • Day 6: Endpoint CTG reading. • 1. Read assay plates for luminescent CTG signal at the end of the assays: add 40 μL of CTG 3D per well by Multidrop dispenser, mix the contents for 5 min on the plate shaker, and incubate the plates for 30 min at room temperature in dark. Read luminescent signal on Envision plate reader.
(§3) In order to calculate absolute IC50, a concentration-response curve was fitted using nonlinear regression model with a sigmoidal dose response with variable slope. The formula for calculating surviving rate is shown below and the absolute IC50 were calculated according to the dose-response curve generated by GraphPad Prism.

[3] = system: gastric cancer organoid GA0087B; experiment: Gastric cancer organoid CTG viability assay; design: AUC (area under curve): unit not given beside the values; conditions: 5 or 6 days; for IC50: absolute IC50
Description: as §1, §2, §3

[4] = system: gastric cancer organoid GA0091B; experiment: Gastric cancer organoid CTG viability assay; design: AUC (area under curve): unit not given beside the values; conditions: 5 or 6 days; for IC50: absolute IC50
Description: as §1, §2, §3

[5] = system: gastric cancer organoid GA0098B; experiment: Gastric cancer organoid CTG viability assay; design: AUC (area under curve): unit not given beside the values; conditions: 5 or 6 days; for IC50: absolute IC50
Description: as §1, §2, §3

[6] = system: gastric cancer organoid GA0119B; experiment: Gastric cancer organoid CTG viability assay; design: AUC (area under curve): unit not given beside the values; conditions: 5 or 6 days; for IC50: absolute IC50
Description: as §1, §2, §3

[7] = system: gastric cancer organoid GA0429B; experiment: Gastric cancer organoid CTG viability assay; design: AUC (area under curve): unit not given beside the values; conditions: 5 or 6 days; for IC50: absolute IC50
Description: as §1, §2, §3

[8] = system: gastric cancer organoid GA2109B; experiment: Gastric cancer organoid CTG viability assay; design: AUC (area under curve): unit not given beside the values; conditions: 5 or 6 days; for IC50: absolute IC50
Description: as §1, §2, §3

[9] = system: gastric cancer organoid GA3055B; experiment: Gastric cancer organoid CTG viability assay; design: AUC (area under curve): unit not given beside the values; conditions: 5 or 6 days; for IC50: absolute IC50
Description: as §1, §2, §3

[10] = system: gastric cancer organoid GA6833B; experiment: Gastric cancer organoid CTG viability assay; design: AUC (area under curve): unit not given beside the values; conditions: 5 or 6 days; for IC50: absolute IC50
Description: as §1, §2, §3

[11] = system: gastric cancer organoid GA6891B; experiment: Gastric cancer organoid CTG viability assay; design: AUC (area under curve): unit not given beside the values; conditions: 5 or 6 days; for IC50: absolute IC50
Description: as §1, §2, §3

| Substance | cell killing of BT474 cells [1] | AUC (area under curve) [2] | Max_Inhibition (%) [2] | IC50 [2] | AUC (area under curve) [3] | Max_Inhibition (%) [3] | IC50 [3] | AUC (area under curve) [4] | Max_Inhibition (%) [4] | IC50 [4] | AUC (area under curve) [5] | Max_Inhibition (%) [5] | IC50 [5] | AUC (area under curve) [6] | Max_Inhibition (%) [6] | IC50 [6] | Max_Inhibition (%) [7] | IC50 [7] | AUC (area under curve) [8] | Max_Inhibition (%) [8] | other results |
| --- | --- | --- | --- | --- | --- | --- | --- | --- | --- | --- | --- | --- | --- | --- | --- | --- | --- | --- | --- | --- | --- |
| trastuzumab deruxtecan | effectively killed BT474 cells but was less efficacious than ADC Example 1 | 330.4667 | 36.69% | > 50 nM | 330.3 | 42.94% | > 50 nM | 459.8 | −4.07% | > 50 nM | 399.6 | 8.49% | > 50 nM | 364.6999 | 26.83% | > 50 nM | 41.08% | > 50 nM | 376.8581 | 18.41% | AUC (area under curve) [7]: 340.3922; IC50 [8]: > 50 nM; AUC (area under curve) [9]: 365.9383; Max_Inhibition (%) [9]: 32.59%; IC50 [9]: > 50 nM; AUC (area under curve) [10]: 347.9672; Max_Inhibition (%) [10]: 30.23%; IC50 [10]: > 50 nM; AUC (area under curve) [11]: 442.4096; Max_Inhibition (%) [11]: −4.87%; IC50 [11]: > 50 nM |
| trastuzumab: humanized anti-HER2 monoclonal antibody | ineffective at killing BT474 cells | 348.9219 | 34.19% | > 50 nM | 447.7 | 35.31% | > 50 nM | 402.9 | 17.54% | > 50 nM | 389.5 | 15.3% | > 50 nM | 382.5737 | 12.83% | > 50 nM | 7.66% | > 50 nM | 365.1782 | 34.63% | IC50 [8]: > 50 nM; AUC (area under curve) [9]: 343.8818; Max_Inhibition (%) [9]: 43.3%; IC50 [9]: > 50 nM; AUC (area under curve) [10]: 311.5796; Max_Inhibition (%) [10]: 32.44%; IC50 [10]: > 50 nM; AUC (area under curve) [11]: 440.8762; Max_Inhibition (%) [11]: −1.19%; IC50 [11]: > 50 nM |
